# Ab-14 heavy chain CDR variants: yeast mating affinities

Data: MIT Lincoln Laboratory AlphaSeq set, Engelhart et al. 2022, doi:10.1038/s41597-022-01779-4, as distributed in FLAb.

Target peptide (SARS-CoV-2 spike, HR2 region): PDVDLGDISGINAS

Ab-14 is the parent antibody, in scFv form: VH, then a (GGGGS)3 linker, then VL. The light chain is unchanged in all variants.
VH: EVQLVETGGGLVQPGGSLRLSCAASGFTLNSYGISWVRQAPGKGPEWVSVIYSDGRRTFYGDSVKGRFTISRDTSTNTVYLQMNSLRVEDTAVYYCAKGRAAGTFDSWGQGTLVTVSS
VL: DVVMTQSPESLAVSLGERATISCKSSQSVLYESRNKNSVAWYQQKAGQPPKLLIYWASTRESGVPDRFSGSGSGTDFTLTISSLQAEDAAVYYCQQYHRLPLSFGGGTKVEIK

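The starting antibody came from a phage panning campaign against this peptide. In library AAYL49, one, two or three CDR residues were substituted; doubles and triples were drawn at random. Affinity was read by AlphaSeq, a pooled yeast mating assay with surface-displayed partners. The frequency of each diploid, read from paired DNA barcodes, reflects how well the two displayed proteins bind. The ratio of observed to expected reads was calibrated, replicate by replicate, on BCL2-family standards whose Kd was known from biolayer interferometry. Mating was done three times.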

Changes read parent residue, position, new residue, counted from the first residue of the VH shown. Every variant below is changed at I34 of the VH (sequential numbering). The read-out is the apparent dissociation constant on a log10 scale (nM): the lower, the stronger. The mean shown is taken over the replicates in which the pair was detected. Where no diploid with the target was found in that replicate, the entry reads "nd": below detection, most likely a poor binder, though not proof of it. Three control strains display no target. For library AAYL49, 15% of the pairings with them gave a signal, with a median of 4.06 and one signal in twenty below 2.83, so weak values seen in few replicates may be background. For each scFv, signals with the empty controls are counted beside the result.

With I34G/F59T/S107F the result was nd, nd, 2.71 (controls 0 of 9). With N30A/I34L/D54R the result was nd, nd, nd (controls 1 of 9). Variant I34A/S53D/D62W gave 5.23, 4.20, 4.79 (mean 4.74; controls 2 of 9). With I34Y/T58A/Y60K the result was nd, nd, nd (controls 1 of 9). With I34H/S63N/D106Y the result was nd, nd, 5.23 (controls 4 of 9).

With Y32I/I34W/G61V the result was nd, nd, nd (controls 2 of 9). Variant I34P/V50Y/T104R gave nd, nd, nd (controls 0 of 9). Variant N30Y/I34C/R57G showed nd, nd, nd (controls 0 of 9). For Y32C/I34V/A102E, the assay gave 4.29, 3.40, nd (mean 3.85; controls 2 of 9). Variant I34R/V50F/K65Q showed nd, nd, nd (controls 3 of 9).

For I34W/Y52A/D54T, the assay gave nd, nd, nd (controls 1 of 9). Variant I34W/D54S/T58N showed 3.67, nd, nd (controls 0 of 9). Variant I34E/S53M/R57C showed nd, 4.29, 4.63 (mean 4.46; controls 3 of 9). Variant F27G/I34Q/T104C gave nd, nd, nd (controls 4 of 9). For L29I/G33Y/I34D, the assay gave nd, nd, 4.49 (controls 1 of 9).

With I34D/Y52I/F59H the result was nd, nd, 4.89 (controls 1 of 9). Variant G26N/I34Q/Y60E gave nd, nd, nd (controls 0 of 9). Variant F27E/I34G/G55Y gave 3.79, nd, nd (controls 0 of 9). Variant G26V/I34A/R56W gave nd, 4.18, 4.10 (mean 4.14; controls 1 of 9). Variant I34E/F59S/A102M showed 4.08, nd, 4.98 (mean 4.53; controls 2 of 9).

For I34V/D54W/G61N, the assay gave 4.97, 5.31, 5.63 (mean 5.30; controls 7 of 9). Variant I34W/R56P/A101N gave nd, nd, nd (controls 0 of 9). Variant T28N/I34Y/K65Q gave 3.64, 4.09, 4.51 (mean 4.08; controls 4 of 9). With I34D/T58M/T104F the result was nd, nd, nd (controls 1 of 9). For I34C/A101G/G103W, the assay gave nd, nd, nd (controls 3 of 9).

With T28Q/I34Y/D106Q the result was nd, nd, nd (controls 0 of 9). Variant I34G showed nd, nd, nd (controls 0 of 9). Variant F27C/N30R/I34P showed nd, 4.02, 3.98 (mean 4.00; controls 5 of 9). With L29F/I34F/K65Y the result was nd, nd, nd (controls 1 of 9). Variant G33N/I34A/R56T showed 4.77, nd, nd (controls 0 of 9).

Variant I34D/G61C/T104Q showed nd, nd, nd (controls 1 of 9). Variant I34C/V64C gave nd, nd, nd (controls 0 of 9). For G33F/I34L, the assay gave 4.09, nd, nd (controls 1 of 9).

3 of these entries, quoted again:

With G26V/I34A/R56W the result was nd, 4.18, 4.10 (mean 4.14; controls 1 of 9).
With I34D/G61C/T104Q the result was nd, nd, nd (controls 1 of 9).
With F27E/I34G/G55Y the result was 3.79, nd, nd (controls 0 of 9).